Test results taken from publication PMC7415805 (Theranostics, 2020).

Protein sequences, listed by entry. Tags and fused reporters are not part of them.
UniProt P30536, whole entry, stated change not applied: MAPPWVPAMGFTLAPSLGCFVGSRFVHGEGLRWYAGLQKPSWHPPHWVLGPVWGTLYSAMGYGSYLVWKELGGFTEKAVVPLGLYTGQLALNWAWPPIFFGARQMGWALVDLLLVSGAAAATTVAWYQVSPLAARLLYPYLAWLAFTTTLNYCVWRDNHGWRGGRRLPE
UniProt P30536, whole entry T147A: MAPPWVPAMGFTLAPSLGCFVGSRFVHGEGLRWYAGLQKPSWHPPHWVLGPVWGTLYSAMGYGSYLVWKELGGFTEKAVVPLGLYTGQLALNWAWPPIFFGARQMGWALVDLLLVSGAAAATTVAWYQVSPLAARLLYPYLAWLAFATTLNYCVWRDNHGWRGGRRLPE

Tests used:
[1] = target: TSPO A147T mutant (LAB) (Homo sapiens, UniProt P30536); experiment: biochemical
[2] = target: T1, TSPO WT (HAB) (Homo sapiens, UniProt P30536, T147A); experiment: Competitive inhibition assay with [3H]PK11195 on membrane proteins, HAB; format: binding
T1 construct: unnamed tag of the 'tagged ORF clone' (own knowledge: OriGene RG clones carry a C-terminal TurboGFP); host or cells: 293FT

Compound `CCC(C)N(C)C(=O)c1cc2ccccc2c(-c2ccccc2Cl)n1` (centres unmarked) [PK11195] has an IC50 [1] of 5.01 µM and an IC50 [2] of 6.05 µM.
